Legend:
[1] = test system: antibody disulfide bond reduction in CCF/HCCF; assay: Minimum effective inhibitor concentration to prevent antibody disulfide reduction in the CHO production process; assay type: biochemical
[2] = biological target: T1, thioredoxin system (Trx, TrxR, NADPH) (Rattus norvegicus, UniProt O89049); assay: In vitro Trx/TrxR study in histidine sulfate buffer: reduction of ocrelizumab, Bioanalyzer assay
T1 sequence (O89049 1-499): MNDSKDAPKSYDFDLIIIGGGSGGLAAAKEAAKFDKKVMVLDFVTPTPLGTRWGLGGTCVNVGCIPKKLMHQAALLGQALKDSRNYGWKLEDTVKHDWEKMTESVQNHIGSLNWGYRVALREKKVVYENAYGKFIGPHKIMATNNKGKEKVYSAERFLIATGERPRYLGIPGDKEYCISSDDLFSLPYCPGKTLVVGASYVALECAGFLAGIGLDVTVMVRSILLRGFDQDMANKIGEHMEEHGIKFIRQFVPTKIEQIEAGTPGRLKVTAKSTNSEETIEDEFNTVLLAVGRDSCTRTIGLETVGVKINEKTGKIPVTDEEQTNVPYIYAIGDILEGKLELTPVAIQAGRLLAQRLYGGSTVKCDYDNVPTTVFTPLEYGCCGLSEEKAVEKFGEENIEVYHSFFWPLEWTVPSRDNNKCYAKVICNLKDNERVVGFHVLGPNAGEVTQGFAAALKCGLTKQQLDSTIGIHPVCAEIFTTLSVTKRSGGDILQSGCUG

Compound: O=S(=O)([O-])[O-].[Cu+2] [CuSO4, cupric sulfate]
- minimum effective concentration ([1]; added in CC medium, Apomab): about 25 μM
- minimum effective concentration ([1]; added in CC medium, antibody 2H7 (Variant A)): about 15 μM
- minimum effective concentration ([1]; added in CC medium, antibody Variant C): about 20 μM
- minimum effective concentration ([1]; added pre-lysis, Apomab): about 75 μM
- minimum effective concentration ([1]; added pre-lysis, antibody 2H7 (Variant A)): about 30 μM
- minimum effective concentration ([1]; added pre-lysis, antibody Variant C): about 501 μM
- inhibition of ocrelizumab reduction by Trx system ([2]; inhibitor 5 μM (1:1 Cu2+:Trx) (FIG. 33)): insufficient to result in a complete inhibition of reduction
- inhibition of ocrelizumab reduction by Trx system ([2]; inhibitor 10 μM (2:1 Cu2+:Trx) (FIG. 32)): effectively inhibits thioredoxin-induced reduction of ocrelizumab
- inhibition of ocrelizumab reduction by Trx system ([2]; inhibitor 20 μM (4:1 Cu2+:Trx) (FIG. 31)): effectively inhibits thioredoxin-induced reduction of ocrelizumab
- inhibition of ocrelizumab reduction by Trx system ([2]; inhibitor 50 μM (FIG. 9)): effectively inhibited the ocrelizumab reduction
- minimal inhibitor concentration as multiple of Trx concentration ([2]; typical): 2 × Trx concentration

— patent publication US11987637B1, “Prevention of disulfide bond reduction during recombinant production of polypeptides” (Genentech, Inc., priority 2007, dated 2024)
